Protein sequences, listed by entry. Tags and fused reporters are not part of them. Residues count along the entry.
UniProt P27958, 1027-1657: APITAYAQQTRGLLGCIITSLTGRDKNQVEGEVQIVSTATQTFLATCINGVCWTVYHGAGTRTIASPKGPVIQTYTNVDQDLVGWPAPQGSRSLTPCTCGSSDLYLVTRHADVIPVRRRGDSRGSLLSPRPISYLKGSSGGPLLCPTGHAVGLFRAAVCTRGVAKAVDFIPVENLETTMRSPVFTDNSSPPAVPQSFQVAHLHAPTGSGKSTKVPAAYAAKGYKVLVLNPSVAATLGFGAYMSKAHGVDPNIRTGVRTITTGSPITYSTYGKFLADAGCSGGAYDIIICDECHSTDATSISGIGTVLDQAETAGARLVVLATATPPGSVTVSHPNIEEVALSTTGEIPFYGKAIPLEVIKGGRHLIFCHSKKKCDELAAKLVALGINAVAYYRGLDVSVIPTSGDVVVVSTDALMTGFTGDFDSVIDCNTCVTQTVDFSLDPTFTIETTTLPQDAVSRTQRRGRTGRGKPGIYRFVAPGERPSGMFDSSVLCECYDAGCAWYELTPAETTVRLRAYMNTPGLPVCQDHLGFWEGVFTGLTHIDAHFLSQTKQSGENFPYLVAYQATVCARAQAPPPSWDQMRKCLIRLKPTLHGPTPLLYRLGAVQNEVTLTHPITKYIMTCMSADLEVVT
UniProt P27958, 1658-1711: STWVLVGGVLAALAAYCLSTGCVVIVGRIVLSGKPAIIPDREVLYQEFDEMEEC

The target in one assay is Recombinant heterodimeric HCV NS3/NS4A protease (strain 1a) (Hepatitis C virus genotype 1a, UniProt P27958). Kind of assay: Spectrophotometric assay for HCV protease inhibitory activity. The assay is classed as biochemical. As to conditions: Table 1, range.
As usually defined, the Ki is a dissociation constant, usually derived from enzyme kinetics or from competition with a known ligand. In the case of `C=CCNC(=O)C(=O)C(CCC)NC(=O)[C@@H]1[C@@H]2[C@H](CN1C(=O)[C@@H](NC(=O)N[C@H](CN(C)S(=O)(=O)N(C)C)C1CCCCC1)C(C)(C)C)C2(C)C` (stereo partly drawn) [Compound 10043], the Ki is no more than 75 nM.

For `C=CCNC(=O)C(=O)C(CCCC)NC(=O)[C@@H]1[C@@H]2[C@H](CN1C(=O)[C@@H](NC(=O)N[C@H](CN(C)S(=O)(=O)N(C)C)C(C)(C)C)C(C)(C)C)C2(C)C` (stereo partly drawn) [Compound 10003], the Ki was no more than 75 nM.

Consider `C#CCCC(NC(=O)[C@@H]1[C@@H]2[C@H](CN1C(=O)[C@@H](NC(=O)N[C@H](CN(C)S(=O)(=O)N(C)C)C(C)(C)C)C1Cc3ccccc3C1)C2(C)C)C(=O)C(=O)NCC=C` (stereo partly drawn) [Compound 10090], for which the Ki is no more than 75 nM.

On to `C=CCNC(=O)C(=O)C(CCCC)NC(=O)[C@@H]1[C@@H]2[C@H](CN1C(=O)[C@@H](NC(=O)N[C@H](CN(C)S(=O)(=O)N(C)C)C1CCCCC1)C(C)(C)C)C2(C)C` (stereo partly drawn) [Compound 10064], for which the Ki is no more than 75 nM.

Still in this assay, the particulars now being: Table 2, range.
`C=CCNC(=O)C(=O)C(CCC(F)(F)F)NC(=O)[C@@H]1[C@@H]2[C@H](CN1C(=O)[C@@H](NC(=O)N[C@H](CN(C)S(C)(=O)=O)C(C)(C)C)C(C)(C)C)C2(C)C` (stereo partly drawn) [Compound 11043]: the Ki was no more than 75 nM.

Regarding `CCCCC(NC(=O)[C@@H]1[C@@H]2[C@H](CN1C(=O)[C@@H](NC(=O)N[C@H](CN(C)S(=O)(=O)CC)C(C)(C)C)C1Cc3ccccc3C1)C2(C)C)C(=O)C(=O)NCC` (stereo partly drawn) [Compound 11357], the Ki is no more than 75 nM.

For the compound `CN(C[C@@H](NC(=O)N[C@H](C(=O)N1C[C@H]2[C@@H]([C@H]1C(=O)NC(CC1CCC1)C(=O)C(N)=O)C2(C)C)C(C)(C)C)C(C)(C)C)S(=O)(=O)C(F)(F)F` (stereo partly drawn) [Compound 11001], the Ki is no more than 75 nM.

`C=CCNC(=O)C(=O)C(CC1CC1)NC(=O)[C@@H]1[C@@H]2[C@H](CN1C(=O)[C@@H](NC(=O)N[C@H](CN(C(C)C)S(C)(=O)=O)C(C)(C)C)C(C)(C)C)C2(C)C` (stereo partly drawn) [Compound 11181]: the Ki is no more than 75 nM.

In the case of `CC(C)S(=O)(=O)N(C)C[C@@H](NC(=O)N[C@H](C(=O)N1C[C@H]2[C@@H]([C@H]1C(=O)NC(CC1CCC1)C(=O)C(N)=O)C2(C)C)C(C)(C)C)C(C)(C)C` (stereo partly drawn) [Compound 11121], the Ki is no more than 75 nM.

On to `CCCCC(NC(=O)[C@@H]1[C@@H]2[C@H](CN1C(=O)[C@@H](NC(=O)N[C@H](CN(C)S(=O)(=O)CC)C(C)(C)C)C1(C)CCCCC1)C2(C)C)C(=O)C(=O)NCC` (stereo partly drawn) [Compound 11359], for which the Ki was no more than 75 nM.

As to `CCCCC(NC(=O)[C@@H]1[C@@H]2[C@H](CN1C(=O)[C@@H](NC(=O)N[C@H](CN(C)S(C)(=O)=O)C(C)(C)C)C1Cc3ccccc3C1)C2(C)C)C(=O)C(=O)NCC1CC1` (stereo partly drawn) [Compound 11281], the Ki was no more than 75 nM.

Regarding `C#CCCC(NC(=O)[C@@H]1[C@@H]2[C@H](CN1C(=O)[C@@H](NC(=O)N[C@H](CN(C)S(C)(=O)=O)C(C)(C)C)C1Cc3ccccc3C1)C2(C)C)C(=O)C(=O)NCC=C` (stereo partly drawn) [Compound 11189], the Ki is no more than 75 nM.

Turning to `C=CCNC(=O)C(=O)C(CCC)NC(=O)[C@@H]1[C@@H]2[C@H](CN1C(=O)[C@@H](NC(=O)N[C@H](CN(C)S(=O)(=O)c1cccs1)C(C)(C)C)C(C)(C)C)C2(C)C` (stereo partly drawn) [Compound 11072], the Ki is no more than 75 nM.

`C=CCNC(=O)C(=O)C(CCCC)NC(=O)[C@@H]1[C@@H]2[C@H](CN1C(=O)[C@@H](NC(=O)N[C@H](CN(C)S(=O)(=O)c1cc(Cl)ccc1OC)C(C)(C)C)C(C)(C)C)C2(C)C` (stereo partly drawn) [Compound 11337]: the Ki is no more than 75 nM.

Consider `C=CCNC(=O)C(=O)C(CCC)NC(=O)[C@@H]1[C@@H]2[C@H](CN1C(=O)[C@@H](NC(=O)N[C@H](CN(C)S(=O)(=O)C1CC1)C(C)(C)C)C1CCCCC1)C2(C)C` (stereo partly drawn) [Compound 11089], for which the Ki was no more than 75 nM.

Regarding `C=CCNC(=O)C(=O)C(CCC)NC(=O)[C@@H]1[C@@H]2[C@H](CN1C(=O)[C@@H](NC(=O)NCC1(N(C)S(C)(=O)=O)CCCCC1)C(C)(C)C)C2(C)C` (stereo partly drawn) [Compound 11389], the Ki is greater than 250 nM.

For the compound `C=CCNC(=O)C(=O)C(CC1CC1)NC(=O)[C@@H]1[C@@H]2[C@H](CN1C(=O)[C@@H](NC(=O)N[C@H](CN(C(C)C)S(=O)(=O)c1cccs1)C(C)(C)C)C(C)(C)C)C2(C)C` (stereo partly drawn) [Compound 11240], the Ki was no more than 75 nM.

Consider `C=CCNC(=O)C(=O)C(CC1CC1)NC(=O)[C@@H]1[C@@H]2[C@H](CN1C(=O)[C@@H](NC(=O)N[C@H](CN(C)S(=O)(=O)c1sc(C)nc1C)C1CCCCC1)C1CCCCC1)C2(C)C` (stereo partly drawn) [Compound 11237], for which the Ki is no more than 75 nM.

In the case of `C=CCNC(=O)C(=O)C(CC1CC1)NC(=O)[C@@H]1[C@@H]2[C@H](CN1C(=O)[C@@H](NC(=O)N[C@H](CN(C)S(=O)(=O)c1ccccn1)C(C)(C)C)C1CCCCC1)C2(C)C` (stereo partly drawn) [Compound 11275], the Ki is no more than 75 nM.

Take `C=CCNC(=O)C(=O)C(CCC)NC(=O)[C@@H]1[C@@H]2[C@H](CN1C(=O)[C@@H](NC(=O)N[C@H](CN(C)S(=O)(=O)c1ccccn1)C(C)(C)C)C(C)(C)C)C2(C)C` (stereo partly drawn) [Compound 11146]: the Ki was no more than 75 nM.

Regarding `C=CCNC(=O)C(=O)C(CC1CC1)NC(=O)[C@@H]1[C@@H]2[C@H](CN1C(=O)[C@@H](NC(=O)N[C@H](CN(C)S(=O)(=O)c1ccccn1)C(C)(C)C)C1Cc3ccccc3C1)C2(C)C` (stereo partly drawn) [Compound 11378], the Ki fell in the range of 75 to 250 nM.

On to `C=CCNC(=O)C(=O)C(CC1CC1)NC(=O)[C@@H]1[C@@H]2[C@H](CN1C(=O)[C@@H](NC(=O)N[C@H](CN(C)S(=O)(=O)c1ccc(OC)cc1)C(C)(C)C)C(C)(C)C)C2(C)C` (stereo partly drawn) [Compound 11340], for which the inhibitory constant (Ki) was no more than 75 nM.

As to `C=CCNC(=O)C(=O)C(CCCC)NC(=O)[C@@H]1[C@@H]2[C@H](CN1C(=O)[C@@H](NC(=O)N[C@H](CN(C)S(=O)(=O)c1ccc(F)cc1F)C(C)(C)C)C(C)(C)C)C2(C)C` (stereo partly drawn) [Compound 11353], the Ki was no more than 75 nM.

In the case of `C=CCNC(=O)C(=O)C(CCCC)NC(=O)[C@@H]1[C@@H]2[C@H](CN1C(=O)[C@@H](NC(=O)N[C@H](CN(C)S(=O)(=O)c1cccs1)C(C)(C)C)C1CCCCC1)C2(C)C` (stereo partly drawn) [Compound 11293], the Ki is no more than 75 nM.

As for `CCCCC(NC(=O)[C@@H]1[C@@H]2[C@H](CN1C(=O)[C@@H](NC(=O)N[C@H](CN(C)S(=O)(=O)c1cccs1)C(C)(C)C)C(C)(C)C)C2(C)C)C(=O)C(=O)NCCOC` (stereo partly drawn) [Compound 11262], the Ki lay in the range of 75 to 250 nM.

The assay is the same for the next values; noted with them: Table 3, range.
With `CC(C)[C@@H](CNS(=O)(=O)C1CC1)NC(=O)N[C@H](C(=O)N1C[C@H]2[C@@H]([C@H]1C(=O)NC(CC1CCC1)C(=O)C(N)=O)C2(C)C)C(C)(C)C` (stereo partly drawn) [Compound 12010], the Ki is no more than 75 nM.

As to `CCCC(NC(=O)[C@@H]1[C@@H]2[C@H](CN1C(=O)[C@@H](NC(=O)N[C@H](CNS(C)(=O)=O)[C@@H](C)CC)C(C)(C)C)C2(C)C)C(=O)C(=O)NCC` (stereo partly drawn) [Compound 12025], the Ki is greater than 250 nM.

Still in this assay, the particulars now being: Table 4, range.
As to `C=CCNC(=O)C(=O)C(CCC)NC(=O)[C@@H]1[C@@H]2[C@H](CN1C(=O)[C@@H](NC(=O)N[C@H](CNC(=O)c1ccccc1)C(C)C)C(C)(C)C)C2(C)C` (stereo partly drawn) [Compound 13008], the Ki is no more than 75 nM.

Still in this assay, the particulars now being: Table 5, range.
With `CC(C)[C@@H](CNC(=O)OCC(C)(C)C)NC(=O)N[C@H](C(=O)N1C[C@H]2[C@@H]([C@H]1C(=O)NC(CC1CCC1)C(=O)C(N)=O)C2(C)C)C(C)(C)C` (stereo partly drawn) [Compound 14011], the Ki is no more than 75 nM.

On to `COC(=O)NC[C@@H](NC(=O)N[C@H](C(=O)N1C[C@H]2[C@@H]([C@H]1C(=O)NC(CC1CC1)C(=O)C(N)=O)C2(C)C)C(C)(C)C)C(C)C` (stereo partly drawn) [Compound 14019], for which the Ki was no more than 75 nM.

Values taken from patent US7759499B2, “Compounds as inhibitors of hepatitis C virus NS3 serine protease” (Schering Corporation, priority 2004, dated 2010).
